scFv variants of Ab-14 (heavy chain) against a SARS-CoV-2 spike peptide

Reference: Li et al. 2023, doi:10.1038/s41467-023-39022-2. File: FLAb, binding data.

Target: peptide PDVDLGDISGINAS, taken from heptad repeat 2 (HR2) of SARS-CoV-2 spike.

The variants keep the light chain, the linker and the frameworks of Ab-14 (scFv order VH, the linker GGGGSGGGGSGGGGS, VL).
VH: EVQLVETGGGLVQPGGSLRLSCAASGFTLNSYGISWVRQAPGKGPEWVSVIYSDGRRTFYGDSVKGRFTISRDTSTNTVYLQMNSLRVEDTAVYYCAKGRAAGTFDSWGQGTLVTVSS
VL: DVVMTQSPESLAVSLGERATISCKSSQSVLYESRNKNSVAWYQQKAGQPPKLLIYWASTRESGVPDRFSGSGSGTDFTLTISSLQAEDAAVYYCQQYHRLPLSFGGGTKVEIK

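Designed CDR sequences, proposed from the first random library and measured here. Their group label is 14H_En_Gibbs (En: ensemble of fine-tuned language models; Gibbs: Gibbs sampling). AlphaSeq pools MATa yeast showing the antibodies with MATalpha yeast showing the peptide. Pairs that bind mate more often; barcode pairs of the diploids are counted by sequencing. Scores were corrected for input abundance and mapped to Kd with protein pairs of known affinity run in the same pool. There are six technical replicates.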

Variants are written as CDR1, CDR2 and CDR3 of the heavy chain (limits as in the source). Parent: GFTLNSYGIS, VIYSDGRRTFYGDSVK, GRAAGTFDS.
Affinities are written as log10 Kd with Kd in nM; a lower number is a better binder.
Where no diploid with the target was found in that replicate, the entry reads "ND": below detection, most likely a poor binder, though not proof of it.
Values of this round are not directly comparable with the first-round values of the same sequences.

CDR-H1 | CDR-H2 | CDR-H3 | log10 Kd (nM) by replicate | empty controls
GFDFQEYGIS | VIYADGQRAVYSDAVK | GNIGAIFSD | ND ND 2.17 ND ND 2.10 | 1 of 18 (2.35)
GFSLGEYGIS | VIYADGVRRSYADKVK | GKNGAISLV | ND ND ND ND ND ND | 0 of 18
GFNLAEYGIS | VIYADGRRVYYADAVK | GKNGENFSF | ND ND ND ND ND ND | 0 of 18
GFDLQEYGIS | VIYADGVRYAYQNSVK | GQIAGTFNS | 0.13 0.37 -0.02 0.06 0.46 0.44 | 1 of 18 (1.02)
GKSLDEYGIS | VIYADGMRAEYQNQVK | GTTGGDVFV | ND ND ND ND ND ND | 0 of 18
GFGLGEYGIS | VIYADGRRTFYKDDVK | GHGIVAGVD | ND ND ND ND ND ND | 0 of 18
GKDLGEYGIS | VIYADGKRTAYVENVK | GTFGGTLLD | ND ND ND ND ND ND | 0 of 18
GKDIEEYGVS | VIYADGKRIAYANKFK | GSNAGSFVD | ND ND ND ND ND ND | 0 of 18
GGDLKEYGIS | VIYADGNRKNYADNVK | GQNGDVLNI | ND ND ND ND ND ND | 1 of 18 (3.36)
GNTLDEYGIS | VIYADGMRKAYINKFK | GMMTGTFDQ | ND ND ND ND ND ND | 0 of 18
GDNINEYGIS | VIYADGLRTQYAENVK | GDLAGTLDS | ND 1.52 ND ND ND 0.76 | 0 of 18
GFDLDEYGIS | VIYADGSRTAYSKNVK | GGFDDKVIV | ND ND ND ND ND ND | 0 of 18
GFNLDEYGIS | VIYADGVRNFYSNSVK | GYGGIFMEL | ND ND ND ND ND ND | 0 of 18
GFDLTEYGIS | VIYADGRRVVYQDKVK | GELAGTFDQ | -0.06 -0.35 -0.27 -0.61 -0.26 -0.41 | 0 of 18
GKDINEYGVS | VIYADGKRNAYQNSVK | GKWAGAFVD | ND ND ND ND ND ND | 0 of 18
EFDLQEYGIS | VIYADGKREAYKDNFK | GNGAGVFDA | ND ND ND ND ND ND | 0 of 18
GFHLDEYGIS | VIYADGKRSVYTNDVK | GELQIGFVI | ND ND ND ND ND ND | 0 of 18
GFDLTEYGIS | VIYADGRRTEYDNDVK | GQVAGHFLD | ND ND ND ND ND ND | 0 of 18
GFNLDEYGVS | VIYADGNRKQYTEDVK | GTNGGAVDL | 2.42 ND ND ND 2.51 ND | 2 of 18 (2.77)
GFDLNEYGVS | VIYADGIRTKYADSFK | GDVVVFLFQ | ND ND ND ND ND ND | 0 of 18
GFNLEEYGIS | VIYADGKRQQYSENVK | GHKGNVRTV | ND ND ND ND ND ND | 0 of 18
GFALNEYGIS | VIYADGSRSAYIESVK | GVNNIDVNV | ND ND ND ND ND ND | 0 of 18
GFGLDEYGIS | VIYADGMRSNYANSVK | GYQAGVIVV | ND ND ND ND ND ND | 0 of 18
GFDIEEYGIS | VIYADGIRQAYKDDVK | GMNVGRFSV | ND ND ND ND ND ND | 0 of 18
GEDLLEYGIS | VIYADGKRVAYTNAVK | GNEAGVFTL | ND ND ND ND ND ND | 0 of 18
GFDFNEYGIS | VIYADGKRTAYADKFK | GGKSAFTDI | ND ND ND ND ND ND | 1 of 18 (1.36)
GFNLDEYGIS | VIYADGKRSAYANKVK | GEQGSFFST | ND ND ND ND 4.58 2.25 | 0 of 18
GFDLQEYGIS | VIFADGLRTAYSDKVK | GQINGYFVD | ND ND ND ND ND ND | 0 of 18
GMDLQEFGIS | VIYADGVREAYTDDFK | GQIAGTIDL | ND ND ND ND ND ND | 0 of 18
GFDLGEYGVS | VIYADGTRAQYASKVK | GNFSGNITV | ND ND ND ND ND ND | 0 of 18
GFDLDEYGIS | VIYADGMRSAYLDSFK | GIYGNGLWF | ND ND ND ND ND ND | 0 of 18
GFELSEYGIS | VIYADGHRSFVTDDVK | GQNGGAFNV | ND ND ND ND ND ND | 0 of 18
GFDLAEYGIS | VIYADGQRKSYANKFK | GRLSGTNIM | ND ND ND ND ND ND | 1 of 18 (2.22)
GFQLDEVGIS | VIYADGIRRAYKSKVK | GGNGGSFDI | ND ND ND ND ND ND | 0 of 18
GPNLQEYGIS | VIYADGIRTAYKDSVK | GQVAGYFPF | ND ND ND ND ND ND | 0 of 18
GFSLDEYGIS | VIYADGMRARYSDQVK | GVKVGNVIM | ND ND ND 2.19 ND ND | 0 of 18
GFDLDKYGIS | VIYADGRRKFYQNQFK | GGQAGTFVI | ND ND ND ND ND ND | 0 of 18
GFDLGEYGIS | VIYADGVRTSYADKVK | GKNGAISSV | ND ND ND ND ND ND | 0 of 18
GQGIEEYGIS | VIYADGQRNAAADEVK | GENAGTFDI | ND ND ND ND ND ND | 0 of 18
GFDLGEYGIS | VIYADGVRQSYVDKVK | GANGVDLLV | ND ND ND ND ND ND | 0 of 18
GKSLDEYGIS | VIYADGMRTMYADKFK | GKLTAGSFL | ND ND ND ND ND ND | 0 of 18
GFDLNEYGIS | VIYADGLRTQYAESFK | GDLAGYLDS | ND ND ND ND ND ND | 1 of 18 (1.58)
GFNLDEYGIS | VIYADGRRTAYKDTVK | GVRTFEFDL | ND ND ND ND ND ND | 0 of 18
GFDINEYGVS | VIYADGMRAFYTDSVK | GKGAGIALV | 1.07 0.07 0.00 -0.15 0.61 0.03 | 0 of 18
GFDIDEYGIS | VIYADGMRQALINAVK | GTLSGTFIA | -0.13 0.22 0.07 0.06 0.48 0.43 | 0 of 18
GEDLDSYGIS | VIYADGLRTAYSDNFK | GNLGGQFDM | ND ND ND ND ND 2.89 | 0 of 18
GKKLDEYGIS | VIYADGKRKFYSNSVK | GGKAGGTTV | ND 2.30 2.45 ND 2.74 1.98 | 0 of 18
GFDVMEYGIS | VIYADGMRQAYANKVK | GGITDSGLI | ND ND ND ND ND ND | 0 of 18

A selection of 5 entries from above:

CDR-H1,CDR-H2,CDR-H3,log10 Kd (nM) by replicate,empty controls
GKSLDEYGIS,VIYADGMRAEYQNQVK,GTTGGDVFV,ND ND ND ND ND ND,0 of 18
GFNLAEYGIS,VIYADGRRVYYADAVK,GKNGENFSF,ND ND ND ND ND ND,0 of 18
GFDLQEYGIS,VIFADGLRTAYSDKVK,GQINGYFVD,ND ND ND ND ND ND,0 of 18
GFNLDEYGIS,VIYADGKRSAYANKVK,GEQGSFFST,ND ND ND ND 4.58 2.25,0 of 18
GFDLNEYGVS,VIYADGIRTKYADSFK,GDVVVFLFQ,ND ND ND ND ND ND,0 of 18

The authors averaged sequences with at least three values out of six and counted those with two or fewer as poor binders.
Three control strains display no target. For all heavy chain designs, 1% of the pairings with them gave a signal, with a median of 2.08 and one signal in twenty below 0.84, so weak values seen in few replicates may be background. The control count says in how many pairings with the empty strains this scFv gave a signal, with their mean in brackets.